Reference: patent US8999654B2, “Method of identifying a compound for the treatment or prevention of obesity” (Omeros Corporation, priority 2003, dated 2015)

Test system: WT and GPR88 KO mice
Experiment: Amphetamine-induced reduction of prepulse inhibition (PPI) of the acoustic startle response
Details: amphetamine 2.5 mg/kg i.p., tested 30 minutes later, both WT and GPR88 KO mice (129sv), p<0.001

SMILES: CC(N)Cc1ccccc1 (stereo not shown) [amphetamine]
- prepulse inhibition (PPI): significant reduction of PPI in both WT and KO
